Tests used:
[1] = molecular target: T1, N-terminal Nano Luciferase/GAK fusion (NL-GAK) in HEK293 cells (Homo sapiens, UniProt O14976); assay: GAK nanoBRET cellular target engagement assay; settings: relative to 49
T1 sequence (O14976 1-1311): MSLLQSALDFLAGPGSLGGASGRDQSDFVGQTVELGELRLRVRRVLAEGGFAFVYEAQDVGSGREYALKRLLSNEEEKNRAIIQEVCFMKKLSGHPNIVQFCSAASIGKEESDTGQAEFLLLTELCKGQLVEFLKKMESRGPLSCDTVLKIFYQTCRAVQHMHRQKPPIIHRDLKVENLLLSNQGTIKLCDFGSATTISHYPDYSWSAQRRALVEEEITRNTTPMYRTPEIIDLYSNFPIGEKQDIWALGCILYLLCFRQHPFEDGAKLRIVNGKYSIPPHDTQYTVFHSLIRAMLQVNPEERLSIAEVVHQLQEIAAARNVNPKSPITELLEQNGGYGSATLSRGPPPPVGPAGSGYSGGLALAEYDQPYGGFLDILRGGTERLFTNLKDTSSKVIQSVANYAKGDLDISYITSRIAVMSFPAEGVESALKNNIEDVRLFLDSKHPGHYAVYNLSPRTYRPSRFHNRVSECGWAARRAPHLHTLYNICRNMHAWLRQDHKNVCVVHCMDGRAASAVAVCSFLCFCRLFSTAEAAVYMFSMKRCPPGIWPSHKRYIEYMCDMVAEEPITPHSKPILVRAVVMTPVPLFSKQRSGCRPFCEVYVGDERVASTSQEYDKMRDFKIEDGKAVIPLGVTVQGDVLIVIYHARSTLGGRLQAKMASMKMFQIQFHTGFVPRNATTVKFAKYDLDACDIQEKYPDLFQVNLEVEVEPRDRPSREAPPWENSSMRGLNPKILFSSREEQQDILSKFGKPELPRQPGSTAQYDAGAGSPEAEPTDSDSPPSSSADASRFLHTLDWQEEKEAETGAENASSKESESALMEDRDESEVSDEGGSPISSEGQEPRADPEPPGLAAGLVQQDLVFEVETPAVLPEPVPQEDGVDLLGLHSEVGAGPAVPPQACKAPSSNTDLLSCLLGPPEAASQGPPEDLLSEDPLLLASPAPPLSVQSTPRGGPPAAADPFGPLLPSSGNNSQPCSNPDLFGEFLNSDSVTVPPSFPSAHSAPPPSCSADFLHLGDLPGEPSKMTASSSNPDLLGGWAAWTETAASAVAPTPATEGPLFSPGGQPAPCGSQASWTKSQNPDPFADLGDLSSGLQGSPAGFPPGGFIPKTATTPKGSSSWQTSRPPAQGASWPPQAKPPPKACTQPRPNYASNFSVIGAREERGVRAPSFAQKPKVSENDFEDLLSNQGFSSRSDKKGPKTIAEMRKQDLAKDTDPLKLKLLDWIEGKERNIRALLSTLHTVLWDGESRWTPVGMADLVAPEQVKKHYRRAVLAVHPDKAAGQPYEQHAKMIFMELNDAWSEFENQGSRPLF

[2] = molecular target: T2, GAK kinase domain (12-347) (Homo sapiens, UniProt O14976); assay: TR-FRET ligand binding displacement assay, GAK
T2 sequence (O14976 12-347): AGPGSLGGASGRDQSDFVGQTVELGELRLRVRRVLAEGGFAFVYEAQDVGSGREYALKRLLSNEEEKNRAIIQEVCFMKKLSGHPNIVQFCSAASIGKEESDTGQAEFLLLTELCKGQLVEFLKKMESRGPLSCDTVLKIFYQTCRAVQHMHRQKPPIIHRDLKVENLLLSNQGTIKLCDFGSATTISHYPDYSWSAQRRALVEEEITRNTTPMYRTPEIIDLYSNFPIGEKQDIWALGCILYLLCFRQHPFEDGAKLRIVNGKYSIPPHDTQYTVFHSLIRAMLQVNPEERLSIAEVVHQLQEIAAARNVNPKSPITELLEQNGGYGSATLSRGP

Q: “6,7-Dimethoxy-N-(3,4,5-trimethoxyphenyl)quinolin-4-amine [Compound 57]” was tested. Which “fold drop in cellular GAK potency” value [1] did it give?
A: 13 fold

Q: What about the “NAK selectivity (ratio of GAK Ki and Ki of nearest NAK family member)” value [2] of the same substance?
A: 5300

Reference: paper PMC5914168 (ChemMedChem, 2017)
